Target: α2AAR (α2A-adrenergic receptor) (Homo sapiens, UniProt P08913)
Assay: α2AAR FLIPR assay (agonist activity)
Type: cell-based
Settings: read-out: α2A agonist activity (EC50), α2AAR cell line hosted in HEK293 cells, tested form: TFA

Protein sequences, listed by entry. Tags and fused reporters are not part of them.
UniProt P08913, whole entry: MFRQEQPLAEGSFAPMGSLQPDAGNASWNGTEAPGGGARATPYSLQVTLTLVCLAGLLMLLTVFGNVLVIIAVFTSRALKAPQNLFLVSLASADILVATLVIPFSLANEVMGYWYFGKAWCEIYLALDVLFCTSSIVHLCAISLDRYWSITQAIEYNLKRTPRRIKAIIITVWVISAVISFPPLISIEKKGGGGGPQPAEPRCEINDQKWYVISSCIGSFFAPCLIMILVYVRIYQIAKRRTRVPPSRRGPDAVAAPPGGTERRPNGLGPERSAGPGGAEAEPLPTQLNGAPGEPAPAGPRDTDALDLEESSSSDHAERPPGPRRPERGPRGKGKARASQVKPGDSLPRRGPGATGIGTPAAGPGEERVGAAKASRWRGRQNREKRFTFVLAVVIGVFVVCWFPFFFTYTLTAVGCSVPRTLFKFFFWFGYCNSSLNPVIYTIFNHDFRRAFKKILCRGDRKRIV

Structure (SMILES): Cc1cccc(C(c2cccc(NC(=O)CC3CCOC3)c2)c2c[nH]cn2)c1C (single isomer, unassigned)
- EC50: 10 to 50 nM

Reference: patent US20240374573A1, “IMIDAZOLE CONTAINING COMPOUNDS, DERIVATIVES THEREFORE, AND USES THEREOF” (AglaeaPharma Inc., priority 2023, published 2024)
